# Assay results taken from patent publication US20150159167A1, “Plants Tolerant to HPPD Inhibitor Herbicides” (Bayer CropScience AG, priority 2009, published 2015).
# System: Synechococcus sp. HPPD "SEQ ID No. 5"
# Test: HPPD activity in presence of HPPD inhibitors (pI50, % inhibition)
# Format: biochemical
# Conditions: 2 mM HPP, 3 minutes incubation
# Text: In this content, pI50-value means the log value of the concentration of inhibitor necessary to inhibit 50% of the enzyme activity in molar concentration.
smiles,measurement,value
"CS(=O)(=O)c1ccc(C(=O)C2C(=O)CCCC2=O)c(Cl)c1 [Sulcotrione, 2-[2-chloro-4-(methylsulfonyl)benzoyl]-1,3-cyclohexanedione]",pI50,4.8
